From patent US20230263164A1 (priority 2020, published 2023)

Experiment: Kinetics of hydrolysis of dithiophosphates by 31P NMR spectroscopy
Conditions: 85° C., 90% H2O/D2O

| Structure (SMILES) | t1/2 (days) of first step [days] |
| --- | --- |
| CC(C)OP(=S)([S-])OC(C)C.[K+] | 17 |
| S=P1([S-])OCCCO1.[K+] | 42 |
